Laboratory results taken from article PMC8637366 (Slas Discovery, 2021).

Protein sequences, listed by entry. Tags and fused reporters are not part of them. Residues count along the entry.
UniProt P22303, 32-614: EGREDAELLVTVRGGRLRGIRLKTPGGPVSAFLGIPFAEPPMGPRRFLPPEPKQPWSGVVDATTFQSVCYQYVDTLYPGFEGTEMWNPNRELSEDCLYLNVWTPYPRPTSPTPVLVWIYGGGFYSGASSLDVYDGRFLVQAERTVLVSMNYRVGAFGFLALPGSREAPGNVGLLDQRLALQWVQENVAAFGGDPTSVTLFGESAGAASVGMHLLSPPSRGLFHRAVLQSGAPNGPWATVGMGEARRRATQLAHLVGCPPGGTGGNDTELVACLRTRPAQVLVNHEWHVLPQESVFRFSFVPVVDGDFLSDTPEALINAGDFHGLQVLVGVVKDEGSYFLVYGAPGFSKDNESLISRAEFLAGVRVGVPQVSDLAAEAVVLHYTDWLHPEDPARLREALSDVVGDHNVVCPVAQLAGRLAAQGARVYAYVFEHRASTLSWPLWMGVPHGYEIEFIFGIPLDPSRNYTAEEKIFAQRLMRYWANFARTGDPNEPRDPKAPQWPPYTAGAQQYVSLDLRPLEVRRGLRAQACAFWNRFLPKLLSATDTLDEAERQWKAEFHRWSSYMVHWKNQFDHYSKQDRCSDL

Molecular target: recombinant human AChE (Homo sapiens, UniProt P22303)
Assay type: biochemical
Conditions: read-out: AChE, IC50

**Q.** Diethylumbelliferyl phosphate was tested. Which IC50 did it give?
**A.** 420 nM
